Here are results for one compound from patent US6660885B2, “Polycyclic aryl and heteroaryl substituted benzenes useful for selective inhibition of the coagulation cascade” (Pharmacia Corporation, priority 2000, dated 2003).

By UniProt entry, the sequences of proteins in these tests, tags left out. Residues count along the entry.
UniProt P08709, 61-212 limits assumed: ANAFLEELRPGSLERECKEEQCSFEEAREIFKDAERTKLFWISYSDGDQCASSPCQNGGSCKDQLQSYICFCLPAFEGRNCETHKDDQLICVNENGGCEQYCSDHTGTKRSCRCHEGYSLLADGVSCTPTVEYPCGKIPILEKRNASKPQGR
UniProt P08709, 213-466 limits assumed: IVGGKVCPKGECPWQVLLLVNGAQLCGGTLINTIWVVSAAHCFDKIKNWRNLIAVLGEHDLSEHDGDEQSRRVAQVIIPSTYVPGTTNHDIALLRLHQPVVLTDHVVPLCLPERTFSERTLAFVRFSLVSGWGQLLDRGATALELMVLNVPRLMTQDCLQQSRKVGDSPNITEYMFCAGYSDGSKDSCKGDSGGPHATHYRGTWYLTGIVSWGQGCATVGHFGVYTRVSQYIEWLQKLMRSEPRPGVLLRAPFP

The experiment deals with T1, recombinant soluble tissue factor and recombinant human factor VIIa (TF-VIIa) (Homo sapiens, UniProt P08709).
T1 construct: purchased American Diagnostica, Greenwich Conn; soluble TF made in house in E. coli
The experiment can be described thus: TF-VIIa Assay (chromogenic substrate hydrolysis, 405 nm). Type of experiment: biochemical. The note with it: read-out: IF-VIIA IC50.

On to `CC(C)Nc1ccc(-c2cccc(N)c2)c(CC(=O)NCc2ccc(C(=N)N)cc2)c1F` [Example 21], for which the IC50 is 0.34 µM.

As usually defined, the IC50 is the point on the concentration scale where inhibition reaches its midpoint.
